{"source": "PubChem BioAssay AID1465", "about": "(SRMLSC, 2008)", "note": "Some of the results follow. Entries with a potency or affinity are not part of this list. The source made the active and inactive calls.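 How the source made its calls: active means fold induction of absorbance versus untreated yeast above a set limit, then at least 30% activation at any dose in follow-up; inconclusive means repeats straddling the limit, or above it without dose testing; inactive means fold induction below the set limit.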"}
{"experiment": "mitochondrial function rescue without frataxin homolog – Friedreich's ataxia, plus single-dose screen, dose response (AID 1465)", "conditions": "S. cerevisiae Yfh1-off respiration, WST-1 reduction, 72 h; at 50 µM; stronger effect = higher value"}
{"smiles": "C(Cc1nn[nH]n1)Cc1nn[nH]n1", "fold induction": "inactive: 1.05"}
{"smiles": "O=C(OC1CN2CCC1CC2)c1cccc(Cl)c1", "note": "(centres undefined)", "fold induction": "inactive: 1.02"}
{"smiles": "CC(C)C(=O)NC(Sc1ccccc1)C(Cl)(Cl)Cl", "note": "(centres undefined)", "fold induction": "inactive: 0.76"}
{"smiles": "O=P(Nc1nccs1)(c1ccccc1)c1ccccc1", "fold induction": "inactive: 1.04"}
{"smiles": "c1nnnn1CCn1cnnn1", "fold induction": "inactive: 1.02"}
{"smiles": "CCOc1ccc(C2=NCC(CBr)S2)cc1", "note": "(centres undefined)", "fold induction": "inactive: 1.18"}
{"smiles": "O=P1(Nc2nc3ccc(Cl)cc3s2)COc2ccccc2O1", "note": "(centres undefined)", "fold induction": "inactive: 1.2"}
{"smiles": "CC(C)(C)C(=O)NC(Sc1ccccc1)C(Cl)(Cl)Cl", "note": "(centres undefined)", "fold induction": "inactive: 0.8"}
{"smiles": "C[C@@H]1C=CCP(=O)(Oc2ccccc2)O1", "note": "(some centres undefined)", "fold induction": "inactive: 1.04"}
{"smiles": "C[C@H]1OP(=O)(Oc2ccccc2)C[C@@H]2O[C@@H]21", "note": "(some centres undefined)", "fold induction": "inactive: 1.08"}
{"smiles": "CC(=O)Nc1ccc(Oc2c([N+](=O)[O-])cc([N+](=O)[O-])cc2[N+](=O)[O-])cc1", "fold induction": "inactive: 1.15"}
{"smiles": "CC(=O)Nc1ccc([As](=O)(O)O)c(O)c1", "fold induction": "inactive: 1.08"}
{"smiles": "CCNC(=S)/N=C(\\N)N[N+](=O)[O-]", "fold induction": "inactive: 1.02"}
{"smiles": "O=C(NC1CCS(=O)(=O)C1)NP(=S)(Oc1ccccc1)Oc1ccccc1", "note": "(centres undefined)", "fold induction": "inactive: 0.96"}
{"smiles": "CCOC(=O)NC(Sc1ccccc1)C(Cl)(Cl)Cl", "note": "(centres undefined)", "fold induction": "inactive: 0.86"}
{"smiles": "Cc1ccc(NP(=O)(Oc2cccc(C)c2)Oc2cccc(C)c2)nc1", "fold induction": "inactive: 1.07"}
{"smiles": "c1ccc(-c2nn[nH]n2)c(-c2nn[nH]n2)c1", "fold induction": "inactive: 0.99"}
{"smiles": "Cc1ccc(OP(=O)(Nc2ccccn2)Oc2ccc(C)cc2)cc1", "fold induction": "inactive: 1"}
{"smiles": "CC(=O)NC(SC(=S)N(CC(C)C)CC(C)C)C(Cl)(Cl)Cl", "note": "(centres undefined)", "fold induction": "inactive: 0.96"}
{"smiles": "COC(=O)c1cc2c(s1)N=C(c1ccccc1)N(C)P2(=O)N1CCOCC1", "note": "(centres undefined)", "fold induction": "inactive: 1.15"}
{"smiles": "CCC(=O)N1C2C3N(C(=O)CC)C1C1N(C(=O)CC)C(C(N1C(=O)CC)N3C(=O)CC)N2C(=O)CC", "fold induction": "inactive: 0.97"}
{"smiles": "CN(C)C(=O)Oc1noc2ccccc12", "fold induction": "inactive: 1.04"}
{"smiles": "O=c1c2cc([N+](=O)[O-])ccc2[nH]c2c([N+](=O)[O-])cc([N+](=O)[O-])cc12", "fold induction": "inactive: 0.85"}
{"smiles": "Cc1ccccc1OP(=O)(Nc1ccccn1)Oc1ccccc1C", "fold induction": "inactive: 0.98"}
